Source: article PMC2574903 (Biochimica et biophysica acta, 2008)

The molecules below were run against T1, carboxylesterase activity of human THP-1 cell lysates (CES1) (Homo sapiens, UniProt P23141) (assay: biochemical).
T1 sequence (P23141 18-567): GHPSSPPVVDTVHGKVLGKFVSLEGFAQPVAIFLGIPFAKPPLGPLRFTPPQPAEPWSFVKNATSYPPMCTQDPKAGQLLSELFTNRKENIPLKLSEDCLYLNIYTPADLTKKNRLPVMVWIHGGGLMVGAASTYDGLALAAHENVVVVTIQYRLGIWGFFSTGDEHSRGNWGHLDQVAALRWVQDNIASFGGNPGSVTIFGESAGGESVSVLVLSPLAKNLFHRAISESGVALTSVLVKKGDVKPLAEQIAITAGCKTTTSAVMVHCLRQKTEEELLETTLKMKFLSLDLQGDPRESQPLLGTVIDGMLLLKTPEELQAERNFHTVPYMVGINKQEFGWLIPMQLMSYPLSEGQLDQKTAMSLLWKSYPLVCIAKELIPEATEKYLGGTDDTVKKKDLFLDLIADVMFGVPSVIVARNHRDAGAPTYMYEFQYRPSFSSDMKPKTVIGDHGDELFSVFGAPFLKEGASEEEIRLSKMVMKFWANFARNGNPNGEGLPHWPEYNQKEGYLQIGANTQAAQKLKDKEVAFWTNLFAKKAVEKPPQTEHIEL

Point of comparison: CCOP(=O)(OCC)Oc1ccc([N+](=O)[O-])cc1 [Paraoxon], IC50 0.29 ± 0.12 nM. Against it:
- COP(=O)(OC)Oc1ccc([N+](=O)[O-])cc1 [Methyl paraoxon] — 170-fold higher, 49 ± 12 nM
- CCOP(=O)(OCC)Oc1nc(Cl)c(Cl)cc1Cl [Chlorpyrifos oxon] — within error, 0.21 ± 0.03 nM
